Results as given in paper PMC6711031, “Discovery of new butyrylcholinesterase inhibitors via structure-based virtual screening” (Journal of Enzyme Inhibition and Medicinal Chemistry, 2019).

Protein sequences, listed by entry. Tags and fused reporters are not part of them.
UniProt P81908, whole entry: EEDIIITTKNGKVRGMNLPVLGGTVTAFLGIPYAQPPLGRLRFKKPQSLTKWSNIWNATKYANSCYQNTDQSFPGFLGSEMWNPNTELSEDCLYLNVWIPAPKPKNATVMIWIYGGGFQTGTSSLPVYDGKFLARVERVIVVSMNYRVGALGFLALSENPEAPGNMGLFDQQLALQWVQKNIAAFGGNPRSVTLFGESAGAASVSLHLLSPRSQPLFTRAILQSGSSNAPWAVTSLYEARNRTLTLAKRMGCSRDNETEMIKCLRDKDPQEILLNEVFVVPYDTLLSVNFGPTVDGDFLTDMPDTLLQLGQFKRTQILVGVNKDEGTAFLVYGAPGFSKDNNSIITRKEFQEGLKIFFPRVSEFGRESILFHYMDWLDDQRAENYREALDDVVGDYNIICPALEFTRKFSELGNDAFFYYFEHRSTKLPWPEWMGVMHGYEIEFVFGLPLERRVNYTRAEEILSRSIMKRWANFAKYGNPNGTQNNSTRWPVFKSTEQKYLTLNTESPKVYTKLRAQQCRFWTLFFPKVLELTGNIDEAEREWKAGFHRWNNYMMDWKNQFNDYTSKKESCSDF

Target: T1, BChE from equine serum (Equus caballus, UniProt P81908)
T1 construct: BChE from equine serum (Sigma); purchased Sigma; host or cells: equine serum
Format: biochemical
Conditions: eqBChE 0.22 U/mL, Tris-HCl pH 8.0, 20 min preincubation at 37 °C, butyrylthiocholine iodide 0.5 mM, read at 412 nm
Protocol: Selected hits were obtained from NCI and they were provided as dry powders in variable quantities (5–10 mg). […] Subsequently, they were diluted to the required concentrations with Tris buffer pH 8.0 for the assay. Enzymatic inhibition assays were performed on BChE from equine serum (Sigma), according to the spectrophotometric Ellman's method. The experiment was performed in 48-well plates in a final volume of 100 µL. Each well contained 0.22 U/mL eqBChE dissolved in Tris–HCl buffer, pH 8.0. They were preincubated for 20 min at different compound concentrations at 37 °C. Then 0.5 mM butyrylthiocholine iodide (Sigma) and 0.35 mM 5,5′-dithiobis -2-nitrobenzoico (DTNB; Sigma) were added. Colour development was measured spectrophotometrically at 412 nm using microplate reader (BioTek ELx800) at a rate of one measurement per minute over 15 min period. […] All samples were assayed in at least duplicate measurements. In general, the amount of DMSO was kept below 1% in the assay. IC50 values were determined graphically from inhibition curves using Graph Pad prism version 6, Graph Pad Software, Inc..

Question: For `CNC(=O)Oc1ccc2c(c1)[C@]1(C)CCN(C)[C@@H]1N2C` [Eserine, reference compound], which IC50 is on record?
Answer: 40 ± 0.1 nM
